ChEMBL document CHEMBL1144497 (Bioorg Med Chem, 2007)

Molecular target: T1, Liver carboxylesterase 1 (Homo sapiens, UniProt P23141)
T1 sequence (P23141 whole entry): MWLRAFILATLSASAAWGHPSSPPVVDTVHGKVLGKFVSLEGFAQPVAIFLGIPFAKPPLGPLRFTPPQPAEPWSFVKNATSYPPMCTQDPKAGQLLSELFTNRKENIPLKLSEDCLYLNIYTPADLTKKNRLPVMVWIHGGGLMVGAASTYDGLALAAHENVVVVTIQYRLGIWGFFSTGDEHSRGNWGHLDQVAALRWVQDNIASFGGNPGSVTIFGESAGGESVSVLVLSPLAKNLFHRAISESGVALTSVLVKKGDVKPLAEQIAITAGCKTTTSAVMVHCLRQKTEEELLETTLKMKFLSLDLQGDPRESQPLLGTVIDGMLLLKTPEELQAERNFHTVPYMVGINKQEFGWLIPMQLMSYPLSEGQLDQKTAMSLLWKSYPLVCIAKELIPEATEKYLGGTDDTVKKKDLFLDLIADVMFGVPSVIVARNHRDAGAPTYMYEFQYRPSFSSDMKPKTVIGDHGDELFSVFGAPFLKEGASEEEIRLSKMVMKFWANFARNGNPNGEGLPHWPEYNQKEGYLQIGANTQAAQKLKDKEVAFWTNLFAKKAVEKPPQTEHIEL
Assay: Activity of human recombinant carboxylesterase 1 assessed as AUDA hydrolysis
Design: scale not given: the % may be the effect or the level left
Outline: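 Ester (100 μM) was incubated with purified baculovirus-expressed human carboxylesterase (hCE-1 or hCE-2, 5 μg; 333 nM) in 0.1 M sodium phosphate pH 7.4 at 37°C. Sampling was at 0, 30 and 60 min, with 60 min reported. Percent free acid (AUDA) formed was measured by LC-MS/MS. Values are averages of three separate measurements.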

Activity: 50%
SMILES: CCC(C)OC(=O)CCCCCCCCCCCNC(=O)NC12CC3CC(CC(C3)C1)C2 (stereo unspecified)
